Counter-ions that a name gives are not always drawn.
Columns and labels:
[1] = biological target: T1, CaV1.2 channels (hCav1.2α, β2, and α2δ1 subunits) (Homo sapiens, UniProt Q13936)
[2] = biological target: T1, CaV1.2 channels (hCav1.2α, β2, and α2δ1 subunits); assay: cell-based

Protein sequences, listed by entry. Tags and fused reporters are not part of them. Lines headed by an entry give the natural chain unless they say otherwise; changes in a name come on top.
UniProt Q13936, whole entry: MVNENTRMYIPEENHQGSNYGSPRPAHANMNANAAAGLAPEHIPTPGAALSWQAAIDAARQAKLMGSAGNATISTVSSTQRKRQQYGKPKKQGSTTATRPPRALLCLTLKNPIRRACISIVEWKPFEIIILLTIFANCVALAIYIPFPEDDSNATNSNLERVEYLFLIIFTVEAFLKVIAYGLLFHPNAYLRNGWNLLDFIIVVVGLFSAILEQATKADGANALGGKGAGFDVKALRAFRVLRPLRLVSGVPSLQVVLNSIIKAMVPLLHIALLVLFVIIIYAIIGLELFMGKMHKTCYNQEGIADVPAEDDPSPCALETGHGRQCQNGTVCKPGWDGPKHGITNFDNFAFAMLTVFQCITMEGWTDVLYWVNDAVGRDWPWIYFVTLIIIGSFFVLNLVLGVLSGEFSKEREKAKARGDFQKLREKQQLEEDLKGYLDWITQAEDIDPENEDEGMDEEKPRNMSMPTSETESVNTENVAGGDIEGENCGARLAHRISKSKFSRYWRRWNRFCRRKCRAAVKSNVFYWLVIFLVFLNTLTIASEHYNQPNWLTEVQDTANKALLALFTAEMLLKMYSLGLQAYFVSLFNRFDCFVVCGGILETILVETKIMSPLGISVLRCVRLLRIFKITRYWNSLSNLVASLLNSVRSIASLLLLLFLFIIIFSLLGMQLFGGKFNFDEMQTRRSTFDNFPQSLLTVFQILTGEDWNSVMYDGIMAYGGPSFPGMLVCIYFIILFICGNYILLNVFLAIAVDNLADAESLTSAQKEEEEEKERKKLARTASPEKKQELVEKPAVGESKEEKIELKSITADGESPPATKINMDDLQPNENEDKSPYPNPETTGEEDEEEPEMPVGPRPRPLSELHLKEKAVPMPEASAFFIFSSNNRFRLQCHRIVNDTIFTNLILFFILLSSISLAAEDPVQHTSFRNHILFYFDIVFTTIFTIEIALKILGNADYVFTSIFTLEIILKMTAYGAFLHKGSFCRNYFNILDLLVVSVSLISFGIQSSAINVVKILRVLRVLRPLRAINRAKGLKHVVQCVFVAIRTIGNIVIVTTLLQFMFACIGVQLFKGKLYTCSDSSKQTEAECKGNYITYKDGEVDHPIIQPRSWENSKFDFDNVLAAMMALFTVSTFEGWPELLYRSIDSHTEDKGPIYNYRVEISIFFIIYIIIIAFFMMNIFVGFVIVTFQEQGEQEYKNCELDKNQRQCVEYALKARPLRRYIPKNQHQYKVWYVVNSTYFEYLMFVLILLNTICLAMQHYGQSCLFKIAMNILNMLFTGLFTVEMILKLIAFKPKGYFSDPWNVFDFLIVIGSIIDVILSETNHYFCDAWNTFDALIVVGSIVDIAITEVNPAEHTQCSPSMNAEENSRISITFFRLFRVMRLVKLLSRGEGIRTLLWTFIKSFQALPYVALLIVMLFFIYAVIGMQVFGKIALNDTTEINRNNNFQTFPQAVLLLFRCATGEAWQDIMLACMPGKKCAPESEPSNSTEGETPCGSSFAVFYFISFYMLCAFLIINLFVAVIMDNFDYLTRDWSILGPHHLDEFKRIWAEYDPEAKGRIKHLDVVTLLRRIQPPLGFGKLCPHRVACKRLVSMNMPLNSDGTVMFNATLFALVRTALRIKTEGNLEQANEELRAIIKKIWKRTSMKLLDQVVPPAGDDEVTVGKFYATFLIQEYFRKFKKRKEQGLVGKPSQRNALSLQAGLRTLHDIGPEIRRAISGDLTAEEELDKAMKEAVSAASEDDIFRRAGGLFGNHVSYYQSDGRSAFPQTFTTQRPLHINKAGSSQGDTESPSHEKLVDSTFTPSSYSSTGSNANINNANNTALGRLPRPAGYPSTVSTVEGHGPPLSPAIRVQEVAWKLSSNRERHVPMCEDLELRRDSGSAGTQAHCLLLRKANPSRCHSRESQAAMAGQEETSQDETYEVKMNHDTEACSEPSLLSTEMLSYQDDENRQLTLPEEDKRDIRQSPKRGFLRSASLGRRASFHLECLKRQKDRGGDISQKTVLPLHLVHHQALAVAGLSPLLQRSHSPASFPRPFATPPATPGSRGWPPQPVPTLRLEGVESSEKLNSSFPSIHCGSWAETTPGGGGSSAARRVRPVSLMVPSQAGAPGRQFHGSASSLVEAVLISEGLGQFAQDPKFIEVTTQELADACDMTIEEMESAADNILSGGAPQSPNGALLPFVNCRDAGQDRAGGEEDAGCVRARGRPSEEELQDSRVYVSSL

SMILES	nH (Hill coefficient) for IBa-step [1]	IC50 ([2]; IC50 for IBa-ramp)	IC50 ([2]; IC50 for IBa-step)	IC50 ([2]; IC50 for ICa-ramp)	IC50 ([2]; IC50 for ICa-step)
C=CCN1CC[C@]23c4c5ccc(O)c4O[C@H]2C(=O)CC[C@@]3(O)[C@H]1C5 [Naloxone, Naloxone hydrochloride]	0.2	87.1 ± 44.4 µM	965 ± 1630 µM	438 ± 317 µM	751 ± 630 µM
Cc1ccc(O)c([C@H](CCN(C(C)C)C(C)C)c2ccccc2)c1 [Tolterodine, tolterodine L-tartrate]				0.3 ± 0.1 µM	2.6 ± 1.5 µM

Source: article PMC9683570
